Reference: ChEMBL document CHEMBL6087398, “Natural phenol carbamates: Selective BuChE/FAAH dual inhibitors show neuroprotection in an Alzheimer's disease mouse model” (Eur J Med Chem, 2025)
pIC50, pKd: −log10 of the molar value.

By UniProt entry, the sequences of proteins in these tests, tags left out.
UniProt P06276, whole entry: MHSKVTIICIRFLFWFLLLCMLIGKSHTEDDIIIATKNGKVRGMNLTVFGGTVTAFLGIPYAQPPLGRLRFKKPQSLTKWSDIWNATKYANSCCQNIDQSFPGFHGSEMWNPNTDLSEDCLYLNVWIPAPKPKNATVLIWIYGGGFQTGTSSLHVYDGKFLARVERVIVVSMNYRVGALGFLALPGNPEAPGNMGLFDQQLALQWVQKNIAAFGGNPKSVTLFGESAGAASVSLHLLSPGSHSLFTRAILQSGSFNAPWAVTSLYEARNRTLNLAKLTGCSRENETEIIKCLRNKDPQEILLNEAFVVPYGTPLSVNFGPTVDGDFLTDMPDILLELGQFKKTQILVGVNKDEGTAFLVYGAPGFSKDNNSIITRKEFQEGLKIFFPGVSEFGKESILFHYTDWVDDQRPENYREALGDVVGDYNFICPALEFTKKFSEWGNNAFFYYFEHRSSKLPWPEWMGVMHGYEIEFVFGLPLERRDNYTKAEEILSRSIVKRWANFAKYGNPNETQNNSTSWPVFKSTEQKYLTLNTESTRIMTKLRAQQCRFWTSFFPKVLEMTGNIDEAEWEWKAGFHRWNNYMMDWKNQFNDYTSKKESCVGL

Columns and labels:
Cholinesterase [1] = biological target: T1, Cholinesterase (Homo sapiens, UniProt P06276); test: Binding affinity to human BuChE (unknown origin) assessed as equilibrium dissociation constant at 0.01 to 40 nM incubated for 60 mins
Cholinesterase [2] = biological target: T1, Cholinesterase; test: Inhibition of human BuChE using butyrylthiocholine iodide as substrate incubated for 5 mins
Cholinesterase [3] = biological target: T1, Cholinesterase; test: Binding affinity to human BuChE (unknown origin) assessed as overall carbamolyation rate at 0.01 to 40 nM incubated for 60 mins

CCN(C)C(=O)Oc1cccc([C@H](C)N(C)C)c1 [RIVASTIGMINE]
pKd (Cholinesterase [1]): 5.43 | pIC50 (Cholinesterase [2]): 5.37 | Ki (Cholinesterase [3]): 5.65 10^-3/uM/min
